Assay results from PubChem BioAssay AID493014 (National Center for Advancing Translational Sciences (NCATS), 2011).
Only a part is listed here, and it is no random draw. Inconclusive results are not listed. The source made the active and inactive calls. The call rests on the fitted dose curve; in most records, active means well fitted inhibition curve with a large enough effect in the signal ratio, with a control signal flat (not every such curve was filed as active); inconclusive means small, poorly fitted or top-dose-only effect, or effect the other way, or a change in a side signal; inactive means flat fitted curve, though single readings scatter; the % refers to the signal ratio.

Test: qHTS Assay to Find Inhibitors of Chronic Active B-Cell Receptor Signaling;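 further: plate controls were basal doxycycline-induced cells for no effect and cells given 10 µM MG132 for full effect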
Conditions: ABC-DLBCL IkBa-CBG/CBR reporter, luminescence ratio (green luciferase fused to IkBa over red control in TMD8 lymphoma cells), 4 h; at 46.1 µM (top of the series)
Text: NIH Molecular Libraries Probe Production Network [MLPCN] NIH Chemical Genomics Center [NCGC] MLPCN Grant: 1 R03 DA031086-01A1 PI Name: Dr. R. Eric Davis NCGC Assay Overview: Diffuse large B-cell lymphoma (DLBCL) is the most common category of non-Hodgkin lymphoma, with ~20,000 new cases per year in the United States. DLBCL should be regarded as a collection of different neoplasms. Microarray gene expression analysis has defined two principal types of DLBCL, named for their similarity to normal B cell stages or activation states: a germinal center B-cell (GCB) type, and an activated B-cell (ABC) type. […] Following the addition of doxycycline to induce expression of the luciferases, the green luminescence in control cultures rises only slowly because the CBG fusion partner IkappaBalpha is targeted by IKK activity for rapid degradation. In contrast, green luminescence rises rapidly in the presence of proteasome inhibitors or IKK inhibitors. The rise in red luminescence of CBR is not affected by proteasome or IKK inhibitors, and serves as normalization for cell number and nonspecific effects. […]
NCGC Assay Protocol Summary: Cells were seeded in 1536-well plates at 5000 cells/4uL in IMDM medium containing 0.5% FBS, w/o phenol red, 1% penicillin/streptomycin. […] The plates were measured on a ViewLux plate reader for green luminescence (540/20 nm filter) and red luminescence (618/8 nm filter). […]

Structure (SMILES) | activity change, negative = inhibition
CCC(=O)N(c1ccccc1)C1(COC)CCN(CCc2cccs2)CC1 | inactive: -1.96%
CCC(=O)N(c1ccccc1)C1(COC)CCN(CCn2nnn(CC)c2=O)CC1 | inactive: -0.74%
